The chains behind the UniProt entries cited, without tags or fusion partners.
UniProt P30291, whole entry: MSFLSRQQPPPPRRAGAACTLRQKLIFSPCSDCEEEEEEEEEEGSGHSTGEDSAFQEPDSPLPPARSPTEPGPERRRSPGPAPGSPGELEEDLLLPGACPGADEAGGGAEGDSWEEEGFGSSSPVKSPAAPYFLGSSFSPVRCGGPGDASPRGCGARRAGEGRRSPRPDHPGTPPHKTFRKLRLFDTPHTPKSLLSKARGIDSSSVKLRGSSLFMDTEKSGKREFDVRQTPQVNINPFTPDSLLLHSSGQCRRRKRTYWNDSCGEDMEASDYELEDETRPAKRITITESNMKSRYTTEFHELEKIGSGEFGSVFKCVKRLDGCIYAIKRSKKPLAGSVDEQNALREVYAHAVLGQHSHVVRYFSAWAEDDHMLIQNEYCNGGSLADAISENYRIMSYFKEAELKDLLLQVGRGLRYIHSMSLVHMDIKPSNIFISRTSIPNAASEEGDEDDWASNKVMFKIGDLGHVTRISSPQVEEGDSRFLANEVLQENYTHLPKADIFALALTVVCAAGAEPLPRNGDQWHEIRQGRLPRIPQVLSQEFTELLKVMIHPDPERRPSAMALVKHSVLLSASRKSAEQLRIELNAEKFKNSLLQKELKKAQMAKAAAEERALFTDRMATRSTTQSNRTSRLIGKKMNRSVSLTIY
UniProt Q96SW2, whole entry: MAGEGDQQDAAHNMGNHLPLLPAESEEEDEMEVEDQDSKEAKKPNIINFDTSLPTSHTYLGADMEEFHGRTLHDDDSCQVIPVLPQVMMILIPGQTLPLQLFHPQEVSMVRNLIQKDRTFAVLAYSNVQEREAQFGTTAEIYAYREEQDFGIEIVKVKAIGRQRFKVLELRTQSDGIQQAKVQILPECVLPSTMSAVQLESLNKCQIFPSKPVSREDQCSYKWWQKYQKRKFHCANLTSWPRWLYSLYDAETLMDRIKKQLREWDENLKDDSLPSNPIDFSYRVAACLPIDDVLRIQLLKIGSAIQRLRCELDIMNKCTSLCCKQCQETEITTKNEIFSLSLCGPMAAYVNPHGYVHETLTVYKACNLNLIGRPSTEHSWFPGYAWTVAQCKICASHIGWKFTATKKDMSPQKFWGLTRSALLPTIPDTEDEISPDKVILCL
UniProt Q9UKT9, whole entry: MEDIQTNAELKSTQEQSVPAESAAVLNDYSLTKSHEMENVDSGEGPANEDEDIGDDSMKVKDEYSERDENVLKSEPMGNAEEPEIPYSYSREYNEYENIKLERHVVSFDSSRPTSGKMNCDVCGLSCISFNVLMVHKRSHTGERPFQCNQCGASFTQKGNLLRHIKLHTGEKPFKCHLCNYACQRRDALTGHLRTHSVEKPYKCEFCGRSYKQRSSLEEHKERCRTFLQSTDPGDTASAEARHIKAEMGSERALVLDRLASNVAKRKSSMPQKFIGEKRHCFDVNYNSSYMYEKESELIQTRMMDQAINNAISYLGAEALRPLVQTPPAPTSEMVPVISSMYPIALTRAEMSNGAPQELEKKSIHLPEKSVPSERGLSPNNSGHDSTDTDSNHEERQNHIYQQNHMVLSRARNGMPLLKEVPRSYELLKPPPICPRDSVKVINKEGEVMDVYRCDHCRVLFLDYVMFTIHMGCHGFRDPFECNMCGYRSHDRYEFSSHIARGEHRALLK
UniProt P48729, whole entry: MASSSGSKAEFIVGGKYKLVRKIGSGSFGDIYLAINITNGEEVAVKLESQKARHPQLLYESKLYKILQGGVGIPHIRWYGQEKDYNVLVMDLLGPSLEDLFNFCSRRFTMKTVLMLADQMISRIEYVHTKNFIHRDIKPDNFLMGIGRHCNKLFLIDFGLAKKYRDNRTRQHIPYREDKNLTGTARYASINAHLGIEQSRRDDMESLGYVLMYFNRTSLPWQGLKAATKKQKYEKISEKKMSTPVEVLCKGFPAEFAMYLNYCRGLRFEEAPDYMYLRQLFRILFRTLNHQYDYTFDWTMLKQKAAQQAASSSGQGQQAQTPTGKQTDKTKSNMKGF
UniProt Q9UKS7, whole entry: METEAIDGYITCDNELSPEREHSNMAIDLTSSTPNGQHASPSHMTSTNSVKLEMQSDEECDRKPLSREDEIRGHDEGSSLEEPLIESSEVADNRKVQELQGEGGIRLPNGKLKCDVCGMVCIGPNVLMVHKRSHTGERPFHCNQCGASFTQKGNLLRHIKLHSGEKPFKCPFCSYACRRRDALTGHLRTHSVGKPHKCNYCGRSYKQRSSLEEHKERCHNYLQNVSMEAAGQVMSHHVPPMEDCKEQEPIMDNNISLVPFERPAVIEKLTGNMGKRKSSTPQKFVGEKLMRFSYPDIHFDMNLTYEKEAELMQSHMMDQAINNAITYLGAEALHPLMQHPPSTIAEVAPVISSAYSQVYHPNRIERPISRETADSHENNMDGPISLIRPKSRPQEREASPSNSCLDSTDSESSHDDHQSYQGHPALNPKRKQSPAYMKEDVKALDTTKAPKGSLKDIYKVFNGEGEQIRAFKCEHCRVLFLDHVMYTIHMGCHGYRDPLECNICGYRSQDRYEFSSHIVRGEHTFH
UniProt Q13422, whole entry: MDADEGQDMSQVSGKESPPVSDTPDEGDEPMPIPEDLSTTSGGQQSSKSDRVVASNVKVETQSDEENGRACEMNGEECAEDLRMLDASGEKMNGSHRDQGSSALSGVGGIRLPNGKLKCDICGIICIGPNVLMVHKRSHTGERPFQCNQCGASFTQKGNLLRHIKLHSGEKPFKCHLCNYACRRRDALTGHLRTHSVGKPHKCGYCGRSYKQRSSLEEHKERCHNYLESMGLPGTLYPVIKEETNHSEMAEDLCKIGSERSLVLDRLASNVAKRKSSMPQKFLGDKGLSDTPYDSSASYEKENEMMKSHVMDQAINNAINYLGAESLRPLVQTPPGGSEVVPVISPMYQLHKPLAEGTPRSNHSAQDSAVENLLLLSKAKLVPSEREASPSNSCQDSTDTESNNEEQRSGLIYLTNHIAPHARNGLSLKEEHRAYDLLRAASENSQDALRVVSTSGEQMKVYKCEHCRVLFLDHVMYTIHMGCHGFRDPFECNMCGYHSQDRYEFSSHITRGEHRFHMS
UniProt P15170, whole entry: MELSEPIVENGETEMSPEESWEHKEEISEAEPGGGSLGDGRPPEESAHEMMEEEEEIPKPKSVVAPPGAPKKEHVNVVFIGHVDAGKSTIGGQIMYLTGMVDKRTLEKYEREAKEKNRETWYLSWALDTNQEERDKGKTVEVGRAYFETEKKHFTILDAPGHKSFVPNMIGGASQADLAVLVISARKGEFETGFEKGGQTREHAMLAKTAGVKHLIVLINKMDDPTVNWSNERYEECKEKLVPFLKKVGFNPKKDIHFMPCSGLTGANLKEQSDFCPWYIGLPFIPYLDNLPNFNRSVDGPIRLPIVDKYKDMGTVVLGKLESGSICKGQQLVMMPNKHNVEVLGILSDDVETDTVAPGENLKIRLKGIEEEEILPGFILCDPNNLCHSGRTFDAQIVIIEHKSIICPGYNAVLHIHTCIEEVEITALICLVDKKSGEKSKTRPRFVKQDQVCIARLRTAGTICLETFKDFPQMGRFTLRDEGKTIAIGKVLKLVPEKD
UniProt Q16531, whole entry partner: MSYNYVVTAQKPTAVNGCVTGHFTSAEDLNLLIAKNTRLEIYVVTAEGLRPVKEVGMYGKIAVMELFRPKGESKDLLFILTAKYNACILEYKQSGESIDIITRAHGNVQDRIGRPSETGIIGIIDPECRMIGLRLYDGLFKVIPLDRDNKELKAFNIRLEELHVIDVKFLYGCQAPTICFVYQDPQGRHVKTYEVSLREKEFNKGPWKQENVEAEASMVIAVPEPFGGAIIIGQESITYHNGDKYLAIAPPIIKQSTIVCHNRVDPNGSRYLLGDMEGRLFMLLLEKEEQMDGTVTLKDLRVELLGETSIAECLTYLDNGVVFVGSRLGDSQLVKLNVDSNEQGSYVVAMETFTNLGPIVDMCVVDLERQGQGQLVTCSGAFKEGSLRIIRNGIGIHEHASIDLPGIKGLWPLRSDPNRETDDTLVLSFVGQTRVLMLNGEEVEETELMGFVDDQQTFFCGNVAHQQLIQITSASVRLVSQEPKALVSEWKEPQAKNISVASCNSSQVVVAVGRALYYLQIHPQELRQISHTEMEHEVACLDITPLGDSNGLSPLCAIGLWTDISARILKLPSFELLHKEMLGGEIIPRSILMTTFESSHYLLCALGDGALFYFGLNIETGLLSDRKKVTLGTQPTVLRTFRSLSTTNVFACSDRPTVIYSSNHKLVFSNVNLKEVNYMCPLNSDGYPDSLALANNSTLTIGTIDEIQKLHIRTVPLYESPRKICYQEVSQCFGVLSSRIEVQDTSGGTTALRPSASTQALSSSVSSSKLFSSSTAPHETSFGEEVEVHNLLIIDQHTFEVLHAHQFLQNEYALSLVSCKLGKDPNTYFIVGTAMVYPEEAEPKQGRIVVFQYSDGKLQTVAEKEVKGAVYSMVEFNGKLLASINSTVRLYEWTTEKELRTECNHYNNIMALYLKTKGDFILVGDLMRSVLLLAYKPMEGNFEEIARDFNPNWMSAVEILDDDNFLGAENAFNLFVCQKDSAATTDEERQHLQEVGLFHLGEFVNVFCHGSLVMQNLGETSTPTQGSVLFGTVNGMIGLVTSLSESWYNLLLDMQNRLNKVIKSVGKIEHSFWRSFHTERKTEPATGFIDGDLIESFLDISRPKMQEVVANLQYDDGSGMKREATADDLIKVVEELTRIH

According to patent publication EP4834897A1, “COMPOUNDS WITH TWO AZAHETEROCYCLES SUBSTITUTED ISOINDOLINONE SKELETON AND USES THEREOF” (dated 2026):

What was measured:
IL-2 = assay: Inflammatory cytokine release from PBMCs induced by PHA (flow cytometry CBA); conditions: PBMCs, PHA 1 µg/mL, 24 h
WEE1 = WEE1 (Homo sapiens, UniProt P30291+Q96SW2); assay: Western blot assay of substrate protein degradation in hPBMCs; conditions: 24 hours treatment, compounds at 50 nM and 500 nM (concentration behind the class not stated)
IKZF3 = IKZF3 (Homo sapiens, UniProt Q96SW2+Q9UKT9); assay: as above; conditions: 24 hours treatment, compounds at 50 nM and 500 nM (concentration behind the class not stated)
CK1α = CK1α (Homo sapiens, UniProt P48729+Q96SW2); assay: as above; conditions: 24 hours treatment, compounds at 50 nM and 500 nM (concentration behind the class not stated)
IKZF2 = IKZF2 (Homo sapiens, UniProt Q96SW2+Q9UKS7); assay: as above; conditions: 24 hours treatment, compounds at 50 nM and 500 nM (concentration behind the class not stated)
IKZF1 = IKZF1 (Homo sapiens, UniProt Q13422+Q96SW2); assay: as above; conditions: 24 hours treatment, compounds at 50 nM and 500 nM (concentration behind the class not stated)
GSPT1 = GSPT1 (Homo sapiens, UniProt P15170+Q96SW2); assay: as above; conditions: 24 hours treatment, compounds at 50 nM and 500 nM (concentration behind the class not stated)
CRBN = CRBN (Homo sapiens, UniProt Q96SW2); assay: CRBN binding affinity by HTRF (CEREBLON BINDING kit); conditions: for Inhibition Rate at 0.5 µM (%) / Inhibition Rate at 2 µM (%): CRBN binding, HTRF; for Inhibition Rate at 0.5 µM (%): compound at 0.5 µM; for Inhibition Rate at 2 µM (%): compound at 2 µM
[1] = test system: Human myeloid monocytic leukemia cell (MV-4-11); assay: Tumor cell proliferation inhibition (cell viability assay); conditions: MV-4-11 cells, 96 hours
[2] = test system: Human multiple myeloma cell (MM.1S); assay: as above; conditions: MM.1S cells, 96 hours

| SMILES | IC50 (CRBN; read-out: HTRF IC50, human Cereblon WT GST-tagged protein, 3 hours at room temperature) [nM] | Inhibition Rate at 0.5 µM (%) (CRBN) | Inhibition Rate at 2 µM (%) (CRBN) | Inhibition Rate (%) IL-2 (IL-2; 0.1 µM) | Inhibition Rate (%) IL-2 (IL-2; 1 µM) | substrate protein remaining % (WEE1) (WEE1) | substrate protein remaining % (IKZF3) (IKZF3) | substrate protein remaining % (CK1a) (CK1α) | substrate protein remaining % (IKZF2) (IKZF2) | substrate protein remaining % (IKZF 1) (IKZF1) | substrate protein remaining % (GSPT1) (GSPT1) | Inhibition Rate at 10 nM (%) [1] | Inhibition Rate at 500 nM (%) [1] | Inhibition Rate at 10 nM (%) ([2]; 10 nM) | Inhibition Rate at 500 nM (%) ([2]; 500 nM) |
| --- | --- | --- | --- | --- | --- | --- | --- | --- | --- | --- | --- | --- | --- | --- | --- |
| O=C1CCC(N2Cc3cccc(CN4CCC(N5CCN(C(c6ccccc6)c6ccccc6)CC5)C(F)(F)C4)c3C2=O)C(=O)N1 (centres unmarked) |  |  |  | IV9 (40% < IV9 ≤ 50%) | IV9 (40% < IV9 ≤ 50%) | A (0% ≤ substrate protein remaining % ≤ 80%) | B (80%< substrate protein remaining %≤ 100%) | B (80%< substrate protein remaining %≤ 100%) | B (80%< substrate protein remaining %≤ 100%) | B (80%< substrate protein remaining %≤ 100%) | A (0% ≤ substrate protein remaining % ≤ 80%) |  |  |  |  |
| O=C1CCN(N2C(=O)c3ccc(CN4CCC(N5CCC(c6noc7cc(F)ccc67)CC5)C(F)(F)C4)cc3C2=O)C(=O)N1 (centres unmarked) |  |  |  | IV9 (40% < IV9 ≤ 50%) | IV8 (30% < IV8 ≤ 40%) | A (0% ≤ substrate protein remaining % ≤ 80%) | B (80%< substrate protein remaining %≤ 100%) | B (80%< substrate protein remaining %≤ 100%) | A (0% ≤ substrate protein remaining % ≤ 80%) | A (0% ≤ substrate protein remaining % ≤ 80%) | B (80%< substrate protein remaining %≤ 100%) |  |  |  |  |
| O=C1CCC(N2Cc3cc(CN4CCC(N5CCN(c6noc7cc(F)ccc67)CC5)CC4)ccc3C2=S)C(=O)N1 (centres unmarked) |  | a4 (40% < a4 ≤ 53%) | a8 (80% < a8 ≤100%) | IV9 (40% < IV9 ≤ 50%) | IV7 (20% < IV7 ≤ 30%) |  |  |  |  |  |  |  |  |  |  |
| O=C1CCN(N2C(=O)c3ccc(CN4CCC(N5CCN(C(c6ccccc6)c6ccccc6)CC5)C(F)(F)C4)cc3C2=O)C(=O)N1 (centres unmarked) |  |  |  | IV11 (60% < IV11 ≤ 70%) | IV1 1 |  |  |  |  |  |  |  |  |  |  |
| O=C1CCN(N2C(=O)c3ccc(CN4CCC(N5CCN(C(c6ccccc6)c6ccccn6)CC5)C(F)(F)C4)cc3C2=O)C(=O)N1 (centres unmarked) |  |  |  | IV9 (40% < IV9 ≤ 50%) | IV8 (30% < IV8 ≤ 40%) | A (0% ≤ substrate protein remaining % ≤ 80%) | B (80%< substrate protein remaining %≤ 100%) | B (80%< substrate protein remaining %≤ 100%) | B (80%< substrate protein remaining %≤ 100%) | B (80%< substrate protein remaining %≤ 100%) | B (80%< substrate protein remaining %≤ 100%) |  |  |  |  |
| O=C1CCC(N2Cc3cccc(C(=O)N4CCC(N5CCN(C(c6ccccc6)c6ccccc6)CC5)C(F)(F)C4)c3C2=O)C(=O)N1 (centres unmarked) |  |  |  | IV9 (40% < IV9 ≤ 50%) | IV9 (40% < IV9 ≤ 50%) |  |  |  |  |  |  |  |  |  |  |
| O=C1CCC(N2Cc3c(ccc(CN4CCC(N5CCC(c6noc7cc(F)ccc67)CC5)C(F)(F)C4)c3F)C2=O)C(=O)N1 (centres unmarked) |  |  |  |  |  | B (80%< substrate protein remaining %≤ 100%) | A (0% ≤ substrate protein remaining % ≤ 80%) | B (80%< substrate protein remaining %≤ 100%) | A (0% ≤ substrate protein remaining % ≤ 80%) | A (0% ≤ substrate protein remaining % ≤ 80%) | A (0% ≤ substrate protein remaining % ≤ 80%) |  |  | 1b9 (70% ≤ 1b9 < 80%) | 1b9 (70% ≤ 1b9 < 80%) |

Now from value to compound, other results behind:

| IC50 (CRBN; read-out: HTRF IC50, human Cereblon WT GST-tagged protein, 3 hours at room temperature) [nM] | Inhibition Rate at 0.5 µM (%) (CRBN) | Inhibition Rate at 2 µM (%) (CRBN) | SMILES | Inhibition Rate (%) IL-2 (IL-2; 0.1 µM) | Inhibition Rate (%) IL-2 (IL-2; 1 µM) | substrate protein remaining % (WEE1) (WEE1) | substrate protein remaining % (IKZF3) (IKZF3) | substrate protein remaining % (CK1a) (CK1α) | substrate protein remaining % (IKZF2) (IKZF2) | substrate protein remaining % (IKZF 1) (IKZF1) | substrate protein remaining % (GSPT1) (GSPT1) | Inhibition Rate at 10 nM (%) [1] | Inhibition Rate at 500 nM (%) [1] | Inhibition Rate at 10 nM (%) ([2]; 10 nM) | Inhibition Rate at 500 nM (%) ([2]; 500 nM) |
| --- | --- | --- | --- | --- | --- | --- | --- | --- | --- | --- | --- | --- | --- | --- | --- |
| 1000 to 1500 |  |  | CC1(C)CCC(CN2CCN(C3CCN(Cc4ccc5c(c4)CN(C4CCC(=O)NC4=O)C5=O)CC3(F)F)CC2)=C(c2ccc(Cl)cc2)C1 (centres unmarked) | IV9 (40% < IV9 ≤ 50%) | IV7 (20% < IV7 ≤ 30%) | B (80%< substrate protein remaining %≤ 100%) | B (80%< substrate protein remaining %≤ 100%) | B (80%< substrate protein remaining %≤ 100%) | B (80%< substrate protein remaining %≤ 100%) | B (80%< substrate protein remaining %≤ 100%) | A (0% ≤ substrate protein remaining % ≤ 80%) |  |  |  |  |
|  | a6 (60% < a6 ≤ 70%) | a8 (80% < a8 ≤100%) | CC1(C)CCC(C(=O)N2CCN(C3CCN(C(=O)c4ccc5c(c4)CN(C4CCC(=O)NC4=O)C5=O)CC3(F)F)CC2)=C(c2ccc(Cl)cc2)C1 (centres unmarked) | IV7 (20% < IV7 ≤ 30%) | IV1 0 |  |  |  |  |  |  |  |  |  |  |
|  | a3 (30% < a3 ≤ 40%) | a7 (70% < a7 ≤80%) | O=C1CCC(N2Cc3ccc(CN4CCC(N5CCN(C(c6ccccc6)c6ccccc6)CC5)CC4)cc3C2=S)C(=O)N1 (centres unmarked) | IV9 (40% < IV9 ≤ 50%) | IV9 (40% < IV9 ≤ 50%) |  |  |  |  |  |  |  |  |  |  |
|  | a5 (53% < a5 ≤ 60%) | a8 (80% < a8 ≤100%) | O=C1CCC(N2Cc3cc(CN4CCC(N5CCN(C(c6ccccc6)c6ccccn6)CC5)C(F)(F)C4)cc(F)c3C2=O)C(=O)N1 (centres unmarked) | IV9 (40% < IV9 ≤ 50%) |  | B (80%< substrate protein remaining %≤ 100%) | B (80%< substrate protein remaining %≤ 100%) | A (0% ≤ substrate protein remaining % ≤ 80%) | B (80%< substrate protein remaining %≤ 100%) | B (80%< substrate protein remaining %≤ 100%) | A (0% ≤ substrate protein remaining % ≤ 80%) | 1a8 (60% ≤ 1a8 < 70%) | 1a10 (80% ≤ 1a10 < 100%) |  |  |
|  | a4 (40% < a4 ≤ 53%) | a8 (80% < a8 ≤100%) | O=C1CCC(N2Cc3cccc(CN4CCC(N5CCN(c6noc7cc(F)ccc67)CC5)C(F)(F)C4)c3C2=O)C(=O)N1 (centres unmarked) | IV10 (50% < IV 10 ≤ 60%) | IV9 (40% < IV9 ≤ 50%) |  |  |  |  |  |  |  |  |  |  |
|  | a3 (30% < a3 ≤ 40%) | a6 (60% < a6 ≤ 70%) | O=C1CCC(N2Cc3cc(C(=O)N4CCC(N5CCN(C(c6ccccc6)c6ccccc6)CC5)CC4)ccc3C2=O)C(=O)N1 (centres unmarked) |  |  | A (0% ≤ substrate protein remaining % ≤ 80%) | B (80%< substrate protein remaining %≤ 100%) | B (80%< substrate protein remaining %≤ 100%) | B (80%< substrate protein remaining %≤ 100%) | A (0% ≤ substrate protein remaining % ≤ 80%) | A (0% ≤ substrate protein remaining % ≤ 80%) | 1a7 (50% ≤ 1a7 < 60%) | 1a9 (70% ≤ 1a9 < 80%) |  |  |
|  | a4 (40% < a4 ≤ 53%) | a8 (80% < a8 ≤100%) | O=C1CCC(N2Cc3cc(CN4CCC(N5CCN(c6cccc(Cl)c6Cl)CC5)CC4)ccc3C2=S)C(=O)N1 (centres unmarked) |  |  | A (0% ≤ substrate protein remaining % ≤ 80%) | A (0% ≤ substrate protein remaining % ≤ 80%) | B (80%< substrate protein remaining %≤ 100%) | B (80%< substrate protein remaining %≤ 100%) | B (80%< substrate protein remaining %≤ 100%) | A (0% ≤ substrate protein remaining % ≤ 80%) | 1a7 (50% ≤ 1a7 < 60%) | 1a9 (70% ≤ 1a9 < 80%) |  |  |
